In experiment [1] the target is acetylcholinesterase (AChE) (Electrophorus electricus, UniProt O42275). The experiment is described as follows: AChE inhibitory activity in vitro. In kind it is biochemical. The following applies: concentration that inhibits 50% of enzyme activity; mean ± SD, three replicates. How it is done:
(§1) Shoot methanolic extracts were evaporated in a freeze-dryer (Labconco, Kansas City, MO, USA), and dry extracts were dissolved in 50% dimethyl sulfoxide. The stock solutions of TSL and NTS extracts were serially diluted for performing enzyme-inhibitory assays. The protocols for MAO-A, AChE, BChE, TYR, α-AM, α-GL, PL, and CHE inhibitory activities were presented in our previous studies. […] Three replicates were used for all enzyme-inhibitory tests.

Amino acid sequences for entries named in this document (tags omitted). Residues count along the entry.
UniProt O42275, 24-633: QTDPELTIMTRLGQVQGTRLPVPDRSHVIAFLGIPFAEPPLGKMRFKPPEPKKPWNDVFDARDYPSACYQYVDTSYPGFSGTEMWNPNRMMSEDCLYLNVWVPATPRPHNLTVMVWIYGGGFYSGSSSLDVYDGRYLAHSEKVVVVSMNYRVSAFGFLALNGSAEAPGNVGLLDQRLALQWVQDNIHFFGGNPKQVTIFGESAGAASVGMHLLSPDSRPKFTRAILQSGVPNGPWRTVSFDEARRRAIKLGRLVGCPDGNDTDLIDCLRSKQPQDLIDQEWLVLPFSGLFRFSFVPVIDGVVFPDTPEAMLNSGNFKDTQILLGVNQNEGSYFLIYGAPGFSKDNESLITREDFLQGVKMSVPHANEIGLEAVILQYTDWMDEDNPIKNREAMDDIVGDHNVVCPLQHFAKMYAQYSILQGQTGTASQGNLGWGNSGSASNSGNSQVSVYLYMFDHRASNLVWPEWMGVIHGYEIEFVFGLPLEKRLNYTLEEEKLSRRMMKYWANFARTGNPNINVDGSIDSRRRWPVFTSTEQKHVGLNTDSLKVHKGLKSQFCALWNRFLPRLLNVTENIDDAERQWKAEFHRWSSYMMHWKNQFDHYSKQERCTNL
UniProt P06276, 29-602, species assumed: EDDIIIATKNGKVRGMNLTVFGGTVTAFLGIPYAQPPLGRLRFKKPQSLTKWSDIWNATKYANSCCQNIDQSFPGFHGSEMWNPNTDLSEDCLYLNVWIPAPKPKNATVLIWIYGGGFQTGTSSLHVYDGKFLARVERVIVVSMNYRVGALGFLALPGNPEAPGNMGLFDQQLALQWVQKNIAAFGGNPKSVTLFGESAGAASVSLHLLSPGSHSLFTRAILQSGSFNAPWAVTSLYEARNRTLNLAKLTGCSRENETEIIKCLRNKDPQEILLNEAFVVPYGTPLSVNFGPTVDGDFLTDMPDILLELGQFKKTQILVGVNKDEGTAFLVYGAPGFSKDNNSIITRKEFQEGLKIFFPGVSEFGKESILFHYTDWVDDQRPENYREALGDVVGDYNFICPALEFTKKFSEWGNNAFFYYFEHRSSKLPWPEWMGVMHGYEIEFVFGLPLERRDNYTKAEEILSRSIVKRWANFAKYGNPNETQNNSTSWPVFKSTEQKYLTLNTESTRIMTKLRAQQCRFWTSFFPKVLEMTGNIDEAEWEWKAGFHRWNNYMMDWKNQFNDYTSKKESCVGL

In experiment [2] the target is butyrylcholinesterase (BChE) (Homo sapiens, UniProt P06276). The experiment is described as follows: BChE inhibitory activity in vitro. In kind it is biochemical. The following applies: concentration that inhibits 25% of enzyme activity; mean ± SD, three replicates. On the procedure:
as §1

Marks after values point to notes of the source that are not given here.

Consider `CNC(=O)Oc1ccc2c(c1)[C@]1(C)CCN(C)[C@@H]1N2C` [Eserine], for which the “AChE (IC50)” value in experiment [1] is listed as 11.97 ± 0.64 ^a µg·mL^−1. Also, in experiment [2], the “BChE (IC25)” value was 0.10 ± 0.02 ^a µg·mL^−1.

Values taken from PMC11357161, “Phytochemical Analysis, Biological Activities, and Docking of Phenolics from Shoot Cultures of Hypericum perforatum L. Transformed by Agrobacterium rhizogenes” (Molecules, 2024).
